Data taken from EP4744680A1, “TARGETED CHEMICAL DRUG AND PREPARATION METHOD THEREFOR, PHARMACEUTICAL COMPOSITION, AND USE OF TARGETED CHEMICAL DRUG” (Bai Yao Zhi Da (Beijing) Nanobio Technology Co., Ltd., priority 2023, dated 2025).

How the values were obtained:
[1] = tested on: A549 lung carcinoma; assay: In-vivo efficacy study in the A549 mouse lung carcinoma model (drug of Example 3); set-up: species or system mouse (BALB/c-nu); conditions: Day 25; 0.08mg i.v. (tail vein) twice weekly for 5 weeks
Procedure: • Species/strain: BALB/c nude (BALB/c-nu) • Age: 6-7 weeks • Sex: Male • Body weight: 16-18 g
The day of implantation was designated as Day 0 (D0).When the tumor volume reached approximately 100.0 mm^3 (D5), animals with poor tumor take were excluded, the remaining animals were randomized by tumor volume, and dosing commenced on the day of randomization. 2).Dosing regimen: Table 31
(§1) Tumor size is measured twice per week using a vernier caliper. The long diameter (a) and short diameter (b) are recorded. Tumor volume is calculated as: V=0.5×a×b^2.
(§2) RTV = Vt /V0 , [formula] where V0 is the tumor volume at grouping/first dosing (D0), and Vt is the tumor volume at each measurement time point.

[2] = tested on: HepG2 liver cancer; assay: In-vivo efficacy study in the HepG2 mouse liver cancer model (drug of Example 6); set-up: species or system mouse (BALB/cAnSlacNifdc-nu); conditions: Day 17; 6 mg/kg (0.12 mg/mouse) i.v. (tail vein) once weekly, 3 administrations
Text: • Species/strain: BALB/cAnSlacNifdc-nu • Sex: Male • Body weight: 16-18 g
1).Inoculation and grouping: For the HepG2 mouse liver cancer model, male BALB/cAnSlacNifdc-nu nude mice, weighing 16.0-18.0 g, were used.Under aseptic conditions, HepG2 tumor tissue was excised and cut into 2.0mm×2.0mm×2.0mm tumor blocks, which were uniformly implanted subcutaneously into the left axillary dorsal region of nude mice. The day of implantation was designated as Day 0 (D0).When the tumor volume reached approximately 250.0 mm^3 (D7), animals were randomized by tumor volume into three groups: A (control group), B, and C (treatment groups), with 8 animals per group.On the day of randomization, all animals began intravenous (tail-vein) dosing once weekly for a total of 3 administrations. 2.Dosing regimen: Table 37
as §1, §2
6).Tumor weight: At the end of the study (D23), the remaining animals were euthanized by cervical dislocation. Tumors were excised, weighed, and photographed.

## COc1cccc2c1C(=O)c1c(O)c3c(c(O)c1C2=O)C[C@@](O)(C(=O)CO)C[C@@H]3O[C@H]1C[C@H](N)[C@@H](O)[C@H](C)O1 [Epirubicin drug substance (API), Epirubicin]
[1]
  Tumor growth inhibition rate (TGI, %) at different days post-inoculation: 28.23%
[2]
  Tumor growth inhibition rate (TGI, %) at different days post-inoculation: 24.38%
